The subject of experiment [1] is homologous recombination (3X-FLAG ACTB reporter). The experiment is described as follows: CRISPR/Cas9 recombination assay. The note with it: 25 or 250 nM BLU1851, 10 μM roscovitine; 72 h.
Experiment [2] has as its system CtIP bandshift and pRPA S4/8. The experiment is described as follows: Western blot of HR signaling after etoposide. The format is cell-based. The note with it: 25 or 250 nM, 24 h before 50 μM etoposide 2 h. A general note: In western blotting, separated proteins are transferred to a membrane and probed.
The next experiment relates to kinases tested (n = 468). The note with it: fraction of kinases with <10% of control at 3 μM among 468 kinases tested.
Experiment [3] relates to phosphorylation of Rb (CDK2 readout) and lamin A/C (CDK1 readout). The experiment can be described thus: Cellular phosphorylation AlphaLISA assays (pRb T821/826, pLamin S22). The note with it: OVCAR-3. (In Alpha technology, singlet oxygen from a donor bead excites a nearby acceptor bead.)
Another experiment addresses CDK7/CycH1 (Homo sapiens, UniProt P50613). The experiment can be described thus: NanoBRET target engagement assay. Conditions: read-out: NanoBRET CDK7/CycH1 IC50; HEK-293T cells transfected with CDK complex.
In experiment [4] the test system is OVCAR-3 cells. The experiment can be described thus: Cell cycle profiling by flow cytometry. Conditions: 250 nM, 24 hour treatment. A general note: A flow cytometer gives signals particle by particle.
The target in the next experiment is CDK2/CycE1 (Homo sapiens, UniProt P24941). The experiment is described as follows: NanoBRET target engagement assay. The class given is binding. The note with it: read-out: NanoBRET CDK2/CycE1 IC50; HEK-293T cells transfected with CDK complex.
A further experiment concerns the target CDK1/CycB1 (Homo sapiens, UniProt P06493). The experiment is described as follows: NanoBRET target engagement assay. The format is binding. The note with it: read-out: NanoBRET CDK1/CycB1 IC50; HEK-293T cells transfected with CDK complex.
A further experiment concerns the target CDK9/CycT1 (Homo sapiens, UniProt P50750). The experiment can be described thus: NanoBRET target engagement assay. The format is binding. Conditions: read-out: NanoBRET CDK9/CycT1 IC50; HEK-293T cells transfected with CDK complex.
The target in another experiment is CDK4/CycD1 (Homo sapiens, UniProt P11802). The experiment is described as follows: NanoBRET target engagement assay. The format is binding. Conditions: read-out: NanoBRET CDK4/CycD1 IC50; HEK-293T cells transfected with CDK complex.
For the next experiment, the target named is CDK6/CycD3 (Homo sapiens, UniProt Q00534). The experiment is described as follows: NanoBRET target engagement assay. The format is binding. The note with it: read-out: NanoBRET CDK6/CycD3 IC50; HEK-293T cells transfected with CDK complex.
In experiment [5] the test system is OVCAR-3 cells. The experiment can be described thus: CyQuant proliferation assay. The note with it: read-out: OVCAR-3 IC50, 5 days, mean of two independent replicates. The format is cell-based, human.
The subject of another experiment is MCF-7 cells. The experiment is described as follows: CyQuant proliferation assay. The class given is cell-based.

Sequences of proteins named here, by UniProt entry; tags and fusion partners are left off.
UniProt P50613, whole entry: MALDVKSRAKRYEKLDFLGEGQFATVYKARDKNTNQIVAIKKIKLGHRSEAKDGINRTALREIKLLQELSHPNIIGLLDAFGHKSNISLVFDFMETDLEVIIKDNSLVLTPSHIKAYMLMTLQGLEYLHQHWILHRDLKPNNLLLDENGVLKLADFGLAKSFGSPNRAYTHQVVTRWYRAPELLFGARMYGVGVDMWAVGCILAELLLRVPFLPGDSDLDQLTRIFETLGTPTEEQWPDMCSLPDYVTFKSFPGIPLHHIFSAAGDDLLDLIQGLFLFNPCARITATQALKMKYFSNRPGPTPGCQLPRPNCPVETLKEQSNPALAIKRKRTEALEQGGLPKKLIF
UniProt P06493, whole entry: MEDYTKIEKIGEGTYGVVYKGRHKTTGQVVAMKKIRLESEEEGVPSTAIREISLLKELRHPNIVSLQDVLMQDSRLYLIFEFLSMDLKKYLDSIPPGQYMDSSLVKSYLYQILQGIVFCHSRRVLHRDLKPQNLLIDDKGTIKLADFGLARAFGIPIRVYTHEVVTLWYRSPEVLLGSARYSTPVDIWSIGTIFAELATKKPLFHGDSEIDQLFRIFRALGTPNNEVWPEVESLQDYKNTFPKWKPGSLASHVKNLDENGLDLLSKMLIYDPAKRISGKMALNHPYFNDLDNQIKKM
UniProt P50750, whole entry: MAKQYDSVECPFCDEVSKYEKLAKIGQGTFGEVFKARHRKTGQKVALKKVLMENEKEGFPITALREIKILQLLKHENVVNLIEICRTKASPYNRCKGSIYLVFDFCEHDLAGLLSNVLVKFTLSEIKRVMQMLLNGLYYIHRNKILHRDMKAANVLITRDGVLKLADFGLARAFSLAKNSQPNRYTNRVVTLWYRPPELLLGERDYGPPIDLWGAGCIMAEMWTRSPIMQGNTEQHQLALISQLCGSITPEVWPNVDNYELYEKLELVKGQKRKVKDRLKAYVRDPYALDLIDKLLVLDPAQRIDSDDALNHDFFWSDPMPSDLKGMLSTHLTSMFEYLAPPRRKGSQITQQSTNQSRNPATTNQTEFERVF
UniProt P11802, whole entry: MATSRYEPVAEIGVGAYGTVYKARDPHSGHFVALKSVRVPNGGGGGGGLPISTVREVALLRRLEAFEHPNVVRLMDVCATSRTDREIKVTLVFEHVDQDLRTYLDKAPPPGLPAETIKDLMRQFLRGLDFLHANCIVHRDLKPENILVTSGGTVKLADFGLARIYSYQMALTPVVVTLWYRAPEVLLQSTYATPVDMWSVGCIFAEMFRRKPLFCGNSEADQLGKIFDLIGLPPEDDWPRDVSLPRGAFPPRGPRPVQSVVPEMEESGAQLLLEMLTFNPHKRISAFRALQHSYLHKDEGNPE
UniProt Q00534, whole entry: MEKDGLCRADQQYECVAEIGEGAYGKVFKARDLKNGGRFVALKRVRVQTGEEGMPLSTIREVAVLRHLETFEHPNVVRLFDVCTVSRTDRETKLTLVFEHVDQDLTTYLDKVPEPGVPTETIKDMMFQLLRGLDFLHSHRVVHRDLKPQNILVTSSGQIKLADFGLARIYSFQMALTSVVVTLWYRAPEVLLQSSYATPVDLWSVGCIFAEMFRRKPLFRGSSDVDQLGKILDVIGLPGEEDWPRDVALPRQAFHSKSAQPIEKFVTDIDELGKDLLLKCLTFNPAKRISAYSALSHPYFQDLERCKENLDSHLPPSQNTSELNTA
UniProt P30281, whole entry partner: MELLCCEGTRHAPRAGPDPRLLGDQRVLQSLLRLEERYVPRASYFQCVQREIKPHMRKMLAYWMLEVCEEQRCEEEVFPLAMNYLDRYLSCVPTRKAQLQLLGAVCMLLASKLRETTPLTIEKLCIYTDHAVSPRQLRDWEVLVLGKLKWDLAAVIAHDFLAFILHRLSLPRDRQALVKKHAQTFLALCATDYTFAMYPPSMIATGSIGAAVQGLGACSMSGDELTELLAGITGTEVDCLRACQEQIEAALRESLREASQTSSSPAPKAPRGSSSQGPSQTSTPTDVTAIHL
UniProt O60563, whole entry partner: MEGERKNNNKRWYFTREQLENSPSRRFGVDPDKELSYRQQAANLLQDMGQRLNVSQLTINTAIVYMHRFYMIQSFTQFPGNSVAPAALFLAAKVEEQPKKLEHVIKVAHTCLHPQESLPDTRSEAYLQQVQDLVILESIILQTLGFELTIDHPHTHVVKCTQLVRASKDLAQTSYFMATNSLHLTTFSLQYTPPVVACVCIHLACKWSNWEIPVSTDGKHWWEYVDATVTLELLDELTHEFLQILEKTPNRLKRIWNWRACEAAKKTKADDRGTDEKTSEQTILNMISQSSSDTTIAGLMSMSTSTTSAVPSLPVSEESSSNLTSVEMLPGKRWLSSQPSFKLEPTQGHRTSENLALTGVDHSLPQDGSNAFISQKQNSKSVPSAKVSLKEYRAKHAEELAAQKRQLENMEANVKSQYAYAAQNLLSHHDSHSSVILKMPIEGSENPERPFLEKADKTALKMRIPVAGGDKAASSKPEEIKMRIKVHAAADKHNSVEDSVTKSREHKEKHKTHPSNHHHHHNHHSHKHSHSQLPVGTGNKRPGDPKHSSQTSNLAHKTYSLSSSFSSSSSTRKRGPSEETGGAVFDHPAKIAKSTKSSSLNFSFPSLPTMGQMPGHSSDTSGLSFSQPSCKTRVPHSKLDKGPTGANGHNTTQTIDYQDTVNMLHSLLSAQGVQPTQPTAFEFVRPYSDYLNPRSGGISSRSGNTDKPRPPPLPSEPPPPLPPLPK
UniProt P24385, whole entry partner: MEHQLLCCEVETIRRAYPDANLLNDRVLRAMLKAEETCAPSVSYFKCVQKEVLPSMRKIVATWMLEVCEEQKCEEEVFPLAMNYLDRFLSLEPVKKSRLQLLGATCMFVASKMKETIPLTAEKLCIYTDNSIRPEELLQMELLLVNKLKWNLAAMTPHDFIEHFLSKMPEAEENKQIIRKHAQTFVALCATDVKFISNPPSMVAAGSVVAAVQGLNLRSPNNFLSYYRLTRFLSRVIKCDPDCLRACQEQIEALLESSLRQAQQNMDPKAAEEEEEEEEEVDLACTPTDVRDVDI
UniProt P14635, whole entry partner: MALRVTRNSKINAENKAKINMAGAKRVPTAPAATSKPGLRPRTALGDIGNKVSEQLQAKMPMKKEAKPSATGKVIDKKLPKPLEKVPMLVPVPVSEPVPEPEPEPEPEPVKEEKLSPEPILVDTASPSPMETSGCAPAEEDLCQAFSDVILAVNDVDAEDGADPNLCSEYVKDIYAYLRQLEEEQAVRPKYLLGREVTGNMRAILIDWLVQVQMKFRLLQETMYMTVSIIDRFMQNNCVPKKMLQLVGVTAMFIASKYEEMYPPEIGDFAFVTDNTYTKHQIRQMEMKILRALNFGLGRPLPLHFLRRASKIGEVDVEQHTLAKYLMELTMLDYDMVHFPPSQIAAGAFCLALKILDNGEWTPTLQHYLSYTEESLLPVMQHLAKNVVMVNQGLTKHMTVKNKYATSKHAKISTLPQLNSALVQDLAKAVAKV
UniProt P51946, whole entry partner: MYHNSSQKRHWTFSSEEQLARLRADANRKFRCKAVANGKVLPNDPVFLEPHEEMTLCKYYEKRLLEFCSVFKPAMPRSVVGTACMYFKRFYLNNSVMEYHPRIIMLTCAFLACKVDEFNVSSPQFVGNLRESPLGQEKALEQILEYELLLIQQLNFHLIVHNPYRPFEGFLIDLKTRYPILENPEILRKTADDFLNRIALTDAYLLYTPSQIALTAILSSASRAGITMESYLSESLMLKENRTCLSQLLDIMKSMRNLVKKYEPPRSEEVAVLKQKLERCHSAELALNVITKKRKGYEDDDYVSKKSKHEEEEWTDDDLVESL

Where two headings read alike, the source gives them in different places.

From paper PMC10373114, “CDK2 regulates collapsed replication fork repair in CCNE1-amplified ovarian cancer cells via homologous recombination” (NAR Cancer, 2023) come the findings set out here.

On to `NS(=O)(=O)c1ccc(Nc2ncc(C(F)(F)F)c(-c3cnn(C4CCOCC4)c3)n2)c(F)c1`, for which the “recombination (3X-FLAG product)” value in [1] was “suppressed in OVCAR-3 and FUOV1 cells but not in COV644 or hTERT-RPE1 cells”. Besides, in experiment [2], the “HR signaling in CCNE1-amplified cell lines” value was “suppressed HR signaling”. Moreover, the “HR signaling in non-amplified cell lines” value in [2] is “little effect”. Further, the “Kinome S (10)” value in the experiment with kinases tested (n = 468) came to 0.050. Further, the “window between cellular CDK2 (pRb) and CDK1 (pLamin) activity” value in experiment [3] was “large window between CDK2 and CDK1 activity”. In addition, the IC50 on CDK7/CycH1 worked out at 2.6 µM; at CDK2/CycE1, 0.0023 µM; at CDK1/CycB1, 0.337 µM; at CDK9/CycT1, 9.4 µM; on CDK4/CycD1, 0.215 µM; on CDK6/CycD3, 0.168 µM. The IC50 is 0.283 µM with OVCAR-3 cells [5]; 1.36 µM with MCF-7 cells (read-out: MCF-7 IC50, proliferation, 5 days, CyQuant, mean of two independent replicates); above 1 µM in the experiment on MCF-7 cells (read-out: average anti-proliferative IC50 in MCF-7, CDK4-dependent cell line). Moreover, the cell cycle arrest entry with OVCAR-3 cells [4] is “arrested cells in G1”.
